Key:
[1] = molecular target: Phosphatidylinositol 4,5-bisphosphate 3-kinase catalytic subunit alpha isoform (Homo sapiens, UniProt P42336)
[2] = molecular target: Phosphatidylinositol 4,5-bisphosphate 3-kinase catalytic subunit alpha isoform (Homo sapiens, UniProt P42336, C420R)
[3] = molecular target: Phosphatidylinositol 4,5-bisphosphate 3-kinase catalytic subunit alpha isoform (Homo sapiens, UniProt P42336, E542K)
[4] = molecular target: Phosphatidylinositol 4,5-bisphosphate 3-kinase catalytic subunit alpha isoform (Homo sapiens, UniProt P42336, E545A)
[5] = molecular target: Phosphatidylinositol 4,5-bisphosphate 3-kinase catalytic subunit alpha isoform (Homo sapiens, UniProt P42336, E545K)
[6] = molecular target: Phosphatidylinositol 4,5-bisphosphate 3-kinase catalytic subunit alpha isoform (Homo sapiens, UniProt P42336, H1047L)
Ephrin type-B receptor 4 = Ephrin type-B receptor 4 (Homo sapiens, UniProt P54760)
[7] = molecular target: Receptor-type tyrosine-protein kinase FLT3 (Homo sapiens, UniProt P36888, D835H)
[8] = molecular target: Receptor-type tyrosine-protein kinase FLT3 (Homo sapiens, UniProt P36888, D835Y)
[9] = molecular target: Receptor-type tyrosine-protein kinase FLT3 (Homo sapiens, UniProt P36888, K663Q)
[10] = molecular target: Receptor-type tyrosine-protein kinase FLT3 (Homo sapiens, UniProt P36888, N841I)
[11] = molecular target: Phosphatidylinositol 4,5-bisphosphate 3-kinase catalytic subunit alpha isoform (Homo sapiens, UniProt P42336, H1047Y)
[12] = molecular target: Phosphatidylinositol 4,5-bisphosphate 3-kinase catalytic subunit alpha isoform (Homo sapiens, UniProt P42336, M1043I)
[13] = molecular target: Phosphatidylinositol 4,5-bisphosphate 3-kinase catalytic subunit alpha isoform (Homo sapiens, UniProt P42336, Q546K)
[14] = molecular target: Inhibitor of nuclear factor kappa-B kinase subunit alpha (Homo sapiens, UniProt O15111)
[15] = molecular target: Interleukin-1 receptor-associated kinase 3 (Homo sapiens, UniProt Q9Y616)
[16] = molecular target: Tyrosine-protein kinase JAK3 (Homo sapiens, UniProt P52333)
[17] = molecular target: Serine/threonine-protein kinase 10 (Homo sapiens, UniProt O94804)
[18] = molecular target: Leukocyte tyrosine kinase receptor (Homo sapiens, UniProt P29376)
[19] = molecular target: Serine/threonine-protein kinase MAK (Homo sapiens, UniProt P20794)
[20] = molecular target: MAP kinase-activated protein kinase 5 (Homo sapiens, UniProt Q8IW41)
[21] = molecular target: Tyrosine-protein kinase Mer (Homo sapiens, UniProt Q12866)
[22] = molecular target: MAP kinase-interacting serine/threonine-protein kinase 1 (Homo sapiens, UniProt Q9BUB5)
[23] = molecular target: Serine/threonine-protein kinase MRCK alpha (Homo sapiens, UniProt Q5VT25)
[24] = molecular target: Myosin light chain kinase 2, skeletal/cardiac muscle (Homo sapiens, UniProt Q9H1R3)
Myosin-IIIa = Myosin-IIIa (Homo sapiens, UniProt Q8NEV4)
[25] = molecular target: Serine/threonine-protein kinase 38-like (Homo sapiens, UniProt Q9Y2H1)
[26] = molecular target: Serine/threonine-protein kinase NIM1 (Homo sapiens, UniProt Q8IY84)
[27] = molecular target: Mitogen-activated protein kinase 12 (Homo sapiens, UniProt P53778)
[28] = molecular target: Serine/threonine-protein kinase PAK 2 (Homo sapiens, UniProt Q13177)
[29] = molecular target: Serine/threonine-protein kinase PAK 5 (Homo sapiens, UniProt Q9P286)
[30] = molecular target: Phosphatidylinositol 3-kinase C2 domain-containing subunit gamma (Homo sapiens, UniProt O75747)
[31] = molecular target: Receptor-type tyrosine-protein kinase FLT3 (Homo sapiens, UniProt P36888, ITD)
[32] = molecular target: Receptor-type tyrosine-protein kinase FLT3 (Homo sapiens, UniProt P36888)
Activin receptor type-1B = Activin receptor type-1B (Homo sapiens, UniProt P36896)
[33] = molecular target: Activin receptor type-1-like (Homo sapiens, UniProt P37023)
[34] = molecular target: ALK tyrosine kinase receptor (Homo sapiens, UniProt Q9UM73)
[35] = molecular target: NUAK family SNF1-like kinase 1 (Homo sapiens, UniProt O60285)
[36] = molecular target: Tyrosine-protein kinase receptor UFO (Homo sapiens, UniProt P30530)
[37] = molecular target: Tyrosine-protein kinase Blk (Homo sapiens, UniProt P51451)
[38] = molecular target: Calcium/calmodulin-dependent protein kinase type II subunit alpha (Homo sapiens, UniProt Q9UQM7)
[39] = molecular target: Calcium/calmodulin-dependent protein kinase type II subunit beta (Homo sapiens, UniProt Q13554)
[40] = molecular target: Cyclin-dependent kinase 11B (Homo sapiens, UniProt P21127)
[41] = molecular target: Cyclin-dependent kinase 11A (Homo sapiens, UniProt Q9UQ88)
[42] = molecular target: Cyclin-dependent kinase 2 (Homo sapiens, UniProt P24941)
[43] = molecular target: Cyclin-dependent kinase 7 (Homo sapiens, UniProt P50613)
[44] = molecular target: Cyclin-dependent kinase-like 5 (Homo sapiens, UniProt O76039)
[45] = molecular target: Citron Rho-interacting kinase (Homo sapiens, UniProt O14578)
[46] = molecular target: Dual specificity protein kinase CLK4 (Homo sapiens, UniProt Q9HAZ1)
[47] = molecular target: Tyrosine-protein kinase CSK (Homo sapiens, UniProt P41240)
[48] = molecular target: Epithelial discoidin domain-containing receptor 1 (Homo sapiens, UniProt Q08345)
[49] = molecular target: Dual specificity tyrosine-phosphorylation-regulated kinase 1B (Homo sapiens, UniProt Q9Y463)
Ephrin type-A receptor 2 = Ephrin type-A receptor 2 (Homo sapiens, UniProt P29317)
Ephrin type-A receptor 3 = Ephrin type-A receptor 3 (Homo sapiens, UniProt P29320)
Ephrin type-B receptor 2 = Ephrin type-B receptor 2 (Homo sapiens, UniProt P29323)
[50] = molecular target: Homeodomain-interacting protein kinase 3 (Homo sapiens, UniProt Q9H422)
[51] = molecular target: Insulin-like growth factor 1 receptor (Homo sapiens, UniProt P08069)
[52] = molecular target: Serine/threonine-protein kinase pim-1 (Homo sapiens, UniProt P11309)
[53] = molecular target: Membrane-associated tyrosine- and threonine-specific cdc2-inhibitory kinase (Homo sapiens, UniProt Q99640)
[54] = molecular target: Serine/threonine-protein kinase PLK3 (Homo sapiens, UniProt Q9H4B4)
[55] = molecular target: cAMP-dependent protein kinase catalytic subunit PRKX (Homo sapiens, UniProt P51817)
[56] = molecular target: Protein-tyrosine kinase 2-beta (Homo sapiens, UniProt Q14289)
[57] = molecular target: Serine/threonine-protein kinase RIO2 (Homo sapiens, UniProt Q9BVS4)
[58] = molecular target: Receptor-interacting serine/threonine-protein kinase 1 (Homo sapiens, UniProt Q13546)
[59] = molecular target: T1, Ribosomal protein S6 kinase alpha-5 (Homo sapiens, UniProt O75582)
[60] = molecular target: T1, Ribosomal protein S6 kinase alpha-5; remark: listed apart in the source
[61] = molecular target: T2, Ribosomal protein S6 kinase alpha-6 (Homo sapiens, UniProt Q9UK32)
[62] = molecular target: T2, Ribosomal protein S6 kinase alpha-6; remark: listed apart in the source
[63] = molecular target: NUAK family SNF1-like kinase 2 (Homo sapiens, UniProt Q9H093)
[64] = molecular target: Tyrosine-protein kinase Srms (Homo sapiens, UniProt Q9H3Y6)
[65] = molecular target: STE20/SPS1-related proline-alanine-rich protein kinase (Homo sapiens, UniProt Q9UEW8)
[66] = molecular target: Serine/threonine-protein kinase TAO3 (Homo sapiens, UniProt Q9H2K8)
[67] = molecular target: Dual specificity testis-specific protein kinase 1 (Homo sapiens, UniProt Q15569)
[68] = molecular target: Serine/threonine-protein kinase tousled-like 2 (Homo sapiens, UniProt Q86UE8)
[69] = molecular target: High affinity nerve growth factor receptor (Homo sapiens, UniProt P04629)
[70] = molecular target: Dual specificity protein kinase TTK (Homo sapiens, UniProt P33981)
[71] = molecular target: Serine/threonine-protein kinase ULK3 (Homo sapiens, UniProt Q6PHR2)
[72] = molecular target: Vascular endothelial growth factor receptor 2 (Homo sapiens, UniProt P35968)
[73] = molecular target: Serine/threonine-protein kinase 25 (Homo sapiens, UniProt O00506)

Protein sequences, listed by entry. Tags and fused reporters are not part of them.
UniProt P42336, whole entry: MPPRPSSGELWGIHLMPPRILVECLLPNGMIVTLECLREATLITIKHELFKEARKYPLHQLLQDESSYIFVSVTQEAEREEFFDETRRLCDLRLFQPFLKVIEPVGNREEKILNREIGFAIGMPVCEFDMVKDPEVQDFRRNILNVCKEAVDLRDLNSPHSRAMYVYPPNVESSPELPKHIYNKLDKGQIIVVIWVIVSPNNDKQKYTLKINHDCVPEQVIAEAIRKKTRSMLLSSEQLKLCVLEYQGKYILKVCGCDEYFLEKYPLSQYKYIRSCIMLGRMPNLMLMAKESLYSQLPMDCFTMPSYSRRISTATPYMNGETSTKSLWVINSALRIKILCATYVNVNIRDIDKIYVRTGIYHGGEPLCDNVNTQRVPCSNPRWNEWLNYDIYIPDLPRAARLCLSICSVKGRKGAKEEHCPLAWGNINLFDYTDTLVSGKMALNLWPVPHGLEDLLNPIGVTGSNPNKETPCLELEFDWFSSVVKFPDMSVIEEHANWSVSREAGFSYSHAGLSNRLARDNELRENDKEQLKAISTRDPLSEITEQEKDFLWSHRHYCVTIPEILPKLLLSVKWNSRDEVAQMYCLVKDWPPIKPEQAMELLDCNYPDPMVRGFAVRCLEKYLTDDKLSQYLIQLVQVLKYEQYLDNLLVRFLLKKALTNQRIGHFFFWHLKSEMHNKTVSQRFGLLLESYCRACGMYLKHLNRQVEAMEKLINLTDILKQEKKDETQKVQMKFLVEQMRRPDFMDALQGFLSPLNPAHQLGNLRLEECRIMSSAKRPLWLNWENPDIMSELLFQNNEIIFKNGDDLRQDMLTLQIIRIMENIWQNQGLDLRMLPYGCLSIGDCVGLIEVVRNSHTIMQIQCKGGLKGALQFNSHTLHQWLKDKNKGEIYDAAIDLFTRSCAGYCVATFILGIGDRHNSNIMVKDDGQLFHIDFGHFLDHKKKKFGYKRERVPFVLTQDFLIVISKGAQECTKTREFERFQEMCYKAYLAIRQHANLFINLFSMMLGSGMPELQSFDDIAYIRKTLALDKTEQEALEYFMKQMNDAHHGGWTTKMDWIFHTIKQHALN
UniProt P42336, whole entry C420R: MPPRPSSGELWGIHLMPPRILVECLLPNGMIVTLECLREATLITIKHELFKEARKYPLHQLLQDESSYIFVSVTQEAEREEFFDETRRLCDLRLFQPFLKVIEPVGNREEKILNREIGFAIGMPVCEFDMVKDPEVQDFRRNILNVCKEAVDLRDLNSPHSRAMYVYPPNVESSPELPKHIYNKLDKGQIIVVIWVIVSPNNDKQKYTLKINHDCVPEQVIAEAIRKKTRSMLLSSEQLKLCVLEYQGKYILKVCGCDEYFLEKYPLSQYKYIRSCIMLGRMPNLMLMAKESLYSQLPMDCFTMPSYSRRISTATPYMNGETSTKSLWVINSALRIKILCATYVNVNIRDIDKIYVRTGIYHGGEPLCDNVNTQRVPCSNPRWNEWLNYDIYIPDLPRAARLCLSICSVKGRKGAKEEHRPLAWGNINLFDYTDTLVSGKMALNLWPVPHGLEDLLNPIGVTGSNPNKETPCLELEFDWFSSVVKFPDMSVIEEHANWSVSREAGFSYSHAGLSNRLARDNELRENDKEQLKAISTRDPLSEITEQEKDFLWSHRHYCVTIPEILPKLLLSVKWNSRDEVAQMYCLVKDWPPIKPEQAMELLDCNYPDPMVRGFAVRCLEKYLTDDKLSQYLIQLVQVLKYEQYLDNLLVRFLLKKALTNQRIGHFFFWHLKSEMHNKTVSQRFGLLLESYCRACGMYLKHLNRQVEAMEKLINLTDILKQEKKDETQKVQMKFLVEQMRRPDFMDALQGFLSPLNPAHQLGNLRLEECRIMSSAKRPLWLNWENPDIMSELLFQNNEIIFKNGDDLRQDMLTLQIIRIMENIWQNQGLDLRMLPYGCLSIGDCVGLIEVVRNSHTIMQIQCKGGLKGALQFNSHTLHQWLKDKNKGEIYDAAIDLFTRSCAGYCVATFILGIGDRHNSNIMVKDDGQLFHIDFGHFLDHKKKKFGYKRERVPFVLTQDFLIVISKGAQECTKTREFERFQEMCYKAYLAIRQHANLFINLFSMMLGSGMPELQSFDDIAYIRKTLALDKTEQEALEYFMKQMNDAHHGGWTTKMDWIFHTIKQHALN
UniProt P42336, whole entry E542K: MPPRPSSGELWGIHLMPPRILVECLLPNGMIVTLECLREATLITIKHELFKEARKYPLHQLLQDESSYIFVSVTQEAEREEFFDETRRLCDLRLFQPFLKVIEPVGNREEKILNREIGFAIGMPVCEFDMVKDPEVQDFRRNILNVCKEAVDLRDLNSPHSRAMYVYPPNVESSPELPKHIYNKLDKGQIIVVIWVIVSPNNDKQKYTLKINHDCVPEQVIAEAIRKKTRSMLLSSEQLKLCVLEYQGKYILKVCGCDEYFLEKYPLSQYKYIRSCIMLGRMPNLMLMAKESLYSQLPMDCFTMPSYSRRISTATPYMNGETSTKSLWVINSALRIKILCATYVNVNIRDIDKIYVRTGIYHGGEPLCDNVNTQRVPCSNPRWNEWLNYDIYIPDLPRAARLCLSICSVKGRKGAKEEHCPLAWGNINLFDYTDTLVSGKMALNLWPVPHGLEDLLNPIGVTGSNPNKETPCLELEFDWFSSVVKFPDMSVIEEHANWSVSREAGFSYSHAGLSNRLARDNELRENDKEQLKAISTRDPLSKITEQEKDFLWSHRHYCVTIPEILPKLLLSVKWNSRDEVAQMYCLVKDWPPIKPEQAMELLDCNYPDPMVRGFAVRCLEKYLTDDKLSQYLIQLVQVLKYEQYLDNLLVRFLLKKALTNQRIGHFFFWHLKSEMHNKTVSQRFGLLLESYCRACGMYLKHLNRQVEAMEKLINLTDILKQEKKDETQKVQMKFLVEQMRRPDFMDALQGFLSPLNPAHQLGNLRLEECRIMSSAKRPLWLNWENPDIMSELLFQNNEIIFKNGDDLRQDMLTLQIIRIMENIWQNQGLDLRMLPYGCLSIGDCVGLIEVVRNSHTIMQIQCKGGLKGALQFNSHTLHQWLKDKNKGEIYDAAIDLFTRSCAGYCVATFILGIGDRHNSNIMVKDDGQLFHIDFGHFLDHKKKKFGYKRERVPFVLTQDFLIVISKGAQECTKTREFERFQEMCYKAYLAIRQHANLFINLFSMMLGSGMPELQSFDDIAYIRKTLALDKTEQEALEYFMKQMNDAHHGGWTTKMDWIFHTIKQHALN
UniProt P42336, whole entry E545A: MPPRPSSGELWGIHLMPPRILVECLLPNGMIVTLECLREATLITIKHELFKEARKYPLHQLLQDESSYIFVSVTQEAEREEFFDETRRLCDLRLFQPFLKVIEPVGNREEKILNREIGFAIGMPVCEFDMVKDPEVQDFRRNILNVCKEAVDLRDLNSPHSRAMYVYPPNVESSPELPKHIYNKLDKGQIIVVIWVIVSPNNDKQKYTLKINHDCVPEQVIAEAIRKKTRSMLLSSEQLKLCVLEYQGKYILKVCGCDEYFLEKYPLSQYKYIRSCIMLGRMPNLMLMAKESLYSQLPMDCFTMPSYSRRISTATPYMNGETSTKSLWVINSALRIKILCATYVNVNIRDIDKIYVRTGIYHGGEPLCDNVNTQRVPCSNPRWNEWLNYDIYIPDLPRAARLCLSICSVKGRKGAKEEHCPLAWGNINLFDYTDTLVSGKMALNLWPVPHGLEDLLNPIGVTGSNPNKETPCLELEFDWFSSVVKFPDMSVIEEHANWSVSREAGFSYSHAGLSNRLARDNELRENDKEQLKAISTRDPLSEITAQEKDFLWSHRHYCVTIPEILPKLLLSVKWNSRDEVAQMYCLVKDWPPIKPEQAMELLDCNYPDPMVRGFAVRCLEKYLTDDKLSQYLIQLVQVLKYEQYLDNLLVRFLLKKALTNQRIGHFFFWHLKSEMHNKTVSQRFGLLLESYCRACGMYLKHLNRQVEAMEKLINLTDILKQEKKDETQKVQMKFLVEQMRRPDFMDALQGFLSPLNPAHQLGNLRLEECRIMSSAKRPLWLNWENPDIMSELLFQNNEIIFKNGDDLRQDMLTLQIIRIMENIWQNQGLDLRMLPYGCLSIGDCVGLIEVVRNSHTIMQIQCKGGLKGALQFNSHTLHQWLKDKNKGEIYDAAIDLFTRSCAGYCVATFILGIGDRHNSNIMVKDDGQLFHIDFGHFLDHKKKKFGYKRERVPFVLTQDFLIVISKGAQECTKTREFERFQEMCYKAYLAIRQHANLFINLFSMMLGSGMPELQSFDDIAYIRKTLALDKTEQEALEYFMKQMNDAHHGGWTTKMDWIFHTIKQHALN
UniProt P42336, whole entry E545K: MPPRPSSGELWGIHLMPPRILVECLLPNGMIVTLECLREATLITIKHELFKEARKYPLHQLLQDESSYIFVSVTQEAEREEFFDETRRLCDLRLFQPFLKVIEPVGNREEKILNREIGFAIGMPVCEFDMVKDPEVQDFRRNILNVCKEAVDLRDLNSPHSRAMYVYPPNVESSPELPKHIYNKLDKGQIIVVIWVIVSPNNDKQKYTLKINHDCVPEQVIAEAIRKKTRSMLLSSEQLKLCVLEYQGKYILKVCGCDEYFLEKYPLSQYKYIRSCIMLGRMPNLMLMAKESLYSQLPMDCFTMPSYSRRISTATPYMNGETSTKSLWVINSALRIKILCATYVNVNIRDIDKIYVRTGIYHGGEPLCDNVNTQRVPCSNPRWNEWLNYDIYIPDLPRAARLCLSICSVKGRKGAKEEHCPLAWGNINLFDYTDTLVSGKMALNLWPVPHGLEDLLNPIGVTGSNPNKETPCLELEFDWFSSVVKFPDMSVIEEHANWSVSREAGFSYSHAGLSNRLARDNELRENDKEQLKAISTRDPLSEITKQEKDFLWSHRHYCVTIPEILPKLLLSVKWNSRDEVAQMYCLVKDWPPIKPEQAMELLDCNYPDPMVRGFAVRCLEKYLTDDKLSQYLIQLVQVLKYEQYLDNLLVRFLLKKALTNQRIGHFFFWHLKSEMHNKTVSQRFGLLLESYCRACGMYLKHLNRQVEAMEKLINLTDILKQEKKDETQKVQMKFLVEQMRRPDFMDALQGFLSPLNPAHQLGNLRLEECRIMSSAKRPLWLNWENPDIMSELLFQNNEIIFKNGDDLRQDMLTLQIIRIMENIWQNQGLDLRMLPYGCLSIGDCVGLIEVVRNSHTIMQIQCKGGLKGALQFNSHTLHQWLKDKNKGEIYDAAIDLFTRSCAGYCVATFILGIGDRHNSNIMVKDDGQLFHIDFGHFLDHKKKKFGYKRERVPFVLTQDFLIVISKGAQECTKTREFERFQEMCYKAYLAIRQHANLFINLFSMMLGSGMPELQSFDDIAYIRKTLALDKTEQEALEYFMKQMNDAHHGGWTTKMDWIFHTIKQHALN
UniProt P42336, whole entry H1047L: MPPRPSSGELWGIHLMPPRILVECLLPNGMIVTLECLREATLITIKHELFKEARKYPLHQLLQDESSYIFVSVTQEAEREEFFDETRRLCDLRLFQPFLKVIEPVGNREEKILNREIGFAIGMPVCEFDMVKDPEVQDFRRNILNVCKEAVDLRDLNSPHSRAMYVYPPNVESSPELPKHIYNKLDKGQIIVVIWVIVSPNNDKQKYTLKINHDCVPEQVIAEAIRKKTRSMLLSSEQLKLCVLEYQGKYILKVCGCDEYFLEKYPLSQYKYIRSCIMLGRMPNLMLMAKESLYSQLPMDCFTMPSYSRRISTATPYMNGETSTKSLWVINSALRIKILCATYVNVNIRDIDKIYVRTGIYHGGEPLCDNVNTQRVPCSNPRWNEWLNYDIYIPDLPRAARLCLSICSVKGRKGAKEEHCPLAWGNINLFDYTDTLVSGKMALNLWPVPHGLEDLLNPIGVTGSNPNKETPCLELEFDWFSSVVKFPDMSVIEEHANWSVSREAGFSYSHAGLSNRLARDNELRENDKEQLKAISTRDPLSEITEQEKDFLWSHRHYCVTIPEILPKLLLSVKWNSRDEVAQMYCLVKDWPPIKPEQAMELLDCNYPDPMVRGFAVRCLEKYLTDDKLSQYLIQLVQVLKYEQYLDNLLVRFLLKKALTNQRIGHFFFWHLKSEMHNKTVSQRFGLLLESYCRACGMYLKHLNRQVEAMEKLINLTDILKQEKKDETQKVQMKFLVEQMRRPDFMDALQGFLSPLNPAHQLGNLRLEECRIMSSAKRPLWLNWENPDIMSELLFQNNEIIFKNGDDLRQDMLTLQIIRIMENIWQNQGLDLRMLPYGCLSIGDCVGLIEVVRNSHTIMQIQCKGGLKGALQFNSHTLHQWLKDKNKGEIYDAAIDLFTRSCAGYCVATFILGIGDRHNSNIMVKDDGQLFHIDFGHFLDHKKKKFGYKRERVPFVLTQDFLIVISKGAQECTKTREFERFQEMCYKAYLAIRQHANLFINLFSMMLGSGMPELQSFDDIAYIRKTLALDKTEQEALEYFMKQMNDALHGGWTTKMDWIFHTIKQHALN

CO[C@@H]1[C@H](N(C)C(=O)c2ccccc2)C[C@H]2O[C@]1(C)n1c3ccccc3c3c4c(c5c6ccccc6n2c5c31)C(=O)N[C@H]4O [CGP-52421]
Kd [1]: > 10 µM | Kd [2]: > 10 µM | Kd [3]: > 10 µM | Kd [4]: > 10 µM | Kd [5]: > 10 µM | Kd [6]: > 10 µM | Kd (Ephrin type-B receptor 4): > 10 µM | Kd [7]: 0.0065 µM | Kd [8]: 0.0079 µM | Kd [9]: 0.019 µM | Kd [10]: 0.023 µM | Kd [11]: > 10 µM | Kd [12]: > 10 µM | Kd [13]: > 10 µM | Kd [14]: > 10 µM | Kd [15]: > 10 µM | Kd [16]: 0.037 µM | Kd [17]: > 10 µM | Kd [18]: > 10 µM | Kd [19]: > 10 µM | Kd [20]: > 10 µM | Kd [21]: > 10 µM | Kd [22]: > 10 µM | Kd [23]: > 10 µM | Kd [24]: > 10 µM | Kd (Myosin-IIIa): > 10 µM | Kd [25]: > 10 µM | Kd [26]: > 10 µM | Kd [27]: > 10 µM | Kd [28]: > 10 µM | Kd [29]: > 10 µM | Kd [30]: > 10 µM | IC50 [31]: 0.16 µM | IC50 [32]: 0.35 µM | Kd (Activin receptor type-1B): > 10 µM | Kd [33]: > 10 µM | Kd [34]: > 10 µM | Kd [35]: 0.11 µM | Kd [36]: > 10 µM | Kd [37]: 0.6 µM | Kd [38]: 0.69 µM | Kd [39]: > 10 µM | Kd [40]: > 10 µM | Kd [41]: > 10 µM | Kd [42]: > 10 µM | Kd [43]: > 10 µM | Kd [44]: > 10 µM | Kd [45]: > 10 µM | Kd [46]: > 10 µM | Kd [47]: > 10 µM | Kd [48]: > 10 µM | Kd [49]: > 10 µM | Kd (Ephrin type-A receptor 2): > 10 µM | Kd (Ephrin type-A receptor 3): > 10 µM | Kd (Ephrin type-B receptor 2): > 10 µM | Kd [50]: > 10 µM | Kd [51]: > 10 µM | Kd [52]: 1.8 µM | Kd [53]: > 10 µM | Kd [54]: > 10 µM | Kd [55]: > 10 µM | Kd [56]: 1.5 µM | Kd [57]: > 10 µM | Kd [58]: > 10 µM | Kd [59]: > 10 µM | Kd [60]: > 10 µM | Kd [61]: > 10 µM | Kd [62]: > 10 µM | Kd [63]: 0.44 µM | Kd [64]: > 10 µM | Kd [65]: > 10 µM | Kd [66]: > 10 µM | Kd [67]: > 10 µM | Kd [68]: > 10 µM | Kd [69]: > 10 µM | Kd [70]: > 10 µM | Kd [71]: > 10 µM | Kd [72]: > 10 µM | Kd [73]: > 10 µM

Reference: ChEMBL document CHEMBL1240346, “AC220 is a uniquely potent and selective inhibitor of FLT3 for the treatment of acute myeloid leukemia (AML)” (Blood, 2009)
